{
  "source": "PubChem BioAssay AID1845224",
  "about": "(National Center for Advancing Translational Sciences (NCATS), 2023)",
  "test_system": "NanoLuc luciferase (engineered Oplophorus gracilirostris luciferase)",
  "experiment": "Confirmatory Nanoluciferase (NLuc) qHTS assay for identification of artifact compounds; also: % of control where 0% means no effect.",
  "settings": "secreted NLuc in S16 cell medium, luminescence, 5 min; at 39 µM (top of the series)",
  "description": "PI: Alexander Tropsha Ph.D. UNC Eshelman School of Pharmacy University of North Carolina, Chapel Hill, North Carolina Hits from high-throughput screening (HTS) of chemical libraries are often false positives due to their interference with the assay detection technology. In response to this problem, we generated the largest publicly available library of chemical liabilities and developed a free webtool to predict HTS artifacts, both of which are described herein. More specifically, we generated, curated, and integrated HTS datasets for thiol reactivity, redox activity, and luciferase (firefly and nano) activity. Using these curated datasets, we developed and validated several Quantitative Structure-Interference Relationship (QSIR) models to predict nuisance behavior. […]\nPROTOCOL TABLE SEQUENCE No. (e.g., 1, 2, 3, etc.); PARAMETER (e.g., Cells, Incubation, Reagent, etc.); VALUE; DESCRIPTION. […] 6; Detection; Luminescence, ViewLux microplate reader. […] 2 uL of NLuc substrate (1:100 in Nano-Glo luciferase buffer; Nano-Glo luminescence assay, Promega, Madison, WI) was dispensed for a final assay volume of 4 uL. […] Samples were read for luminescence on a ViewLux CCD imager (PerkinElmer). […]",
  "note": "The entries are a selection whose mix differs from that of the whole data set. Inconclusive results are not listed. Activity calls are given as the source filed them. Calls follow the shape of the dose curve; as a rule, active = well fitted curve in the direction sought with a large enough effect; inconclusive = small, poorly fitted or top-dose-only effect, or another doubt; inactive = no such curve, though single readings can be large or run the other way.",
  "data": [
    {"molecule": "[NH4+].[O-][Cl+3]([O-])([O-])[O-]", "values": [
      {"measurement": "activity change, negative = inhibition", "value": "inactive: 6.24%"}
    ]}
  ]
}
